Measurements reported in article PMC9573667, “Efficient Oxidative Dearomatisations of Substituted Phenols Using Hypervalent Iodine (III) Reagents and Antiprotozoal Evaluation of the Resulting Cyclohexadienones against T. b. rhodesiense and P. falciparum Strain NF54” (Molecules, 2022).

Assays:
[1] = tested on: T. brucei rhodesiense, strain STIB900 trypomastigote forms; experiment: In vitro growth inhibition assay of Trypanosoma brucei rhodesiense STIB900 (Alamar blue); settings: based on IC50 values in nmol/L; DataWarrior 5.5.0
Protocol: Trypanocidal activity was determined in vitro against axenically grown bloodstream-forms of T. b. rhodesiense STIB900 as described in Refs. [76, 77] and detailed in the Supplementary Materials. Parasite proliferation was assessed via fluorescence of the redox-sensitive dye resazurin (Alamar blue). The drug melarsoprol was used as the positive control. […]
1.2 In vitro growth inhibition assay of Trypanosoma brucei rhodesiense
Trypanosoma brucei rhodesiense, STIB 900 strain, and the standard drug, melarsoprol, were used for the assay. Minimum Essential Medium (50 μL) supplemented with 25 mM HEPES, 1g/L additional glucose, 1% MEM non-essential amino acids (100x), 0.2 mM 2-mercaptoethanol, 1 mM Na-pyruvate and 15% heat-inactivated horse serum was added to each well of a 96-well microtiter plate. Serial drug dilutions of 11 three-fold dilution steps covering a range from 100 to 0.002 μg/mL were prepared. Then […]
mL double-distilled water) was then added to each well and incubation continued for a further 2–4 h.
Then, the plates were read with a Spectramax Gemini XS microplate fluorometer (Molecular Devices Cooperation, Sunnyvale, CA, USA) using an excitation wavelength of 536 nm and an emission wavelength of 588 nm. The IC50 values were calculated from the sigmoidal inhibition curves using the microplate reader software Softmax Pro (Molecular Devices Cooperation, Sunnyvale, CA, USA). […]

[2] = tested on: P. falciparum, strain NF54, erythrocytic stages; experiment: In vitro growth inhibition assay of Plasmodium falciparum NF54 ([3H]-hypoxanthine incorporation); settings: based on IC50 values in nmol/L; DataWarrior 5.5.0
Protocol: Antimalarial activity was determined in vitro against the erythrocytic stages of P. falciparum using the drug-sensitive strain NF54. Parasite proliferation was assessed by incorporation of [^3H]-hypoxanthine using a modified version of [75]; for details, please refer to the Supplementary Materials. The positive control was chloroquine.
1. Experimental of biological testing
1.1 In vitro growth inhibition assay of Plasmodium falciparum NF54
Plasmodium falciparum, strain NF54, erythrocytic stages, and the standard drug, chloroquine, were used for the assay. The parasite cultures incubated in RPMI 1640 medium with 5% AlbuMAXTM (without hypoxanthine) were exposed to serial drug dilutions in microtiter plates. After 48 h of incubation at 37 °C in a reduced oxygen atmosphere, 0.5 μCi [3H]-hypoxanthine was added to each well of the plate. Cultures were incubated for a further 24 h before they were harvested onto glass-fiber filters and washed with distilled water. The radioactivity was counted using a BetaplateTM liquid scintillation […]
counter (Wallac, Zurich). […]
concentration and expressed as percentage of the untreated controls. IC50 values were calculated from the sigmoidal inhibition curves using Microsoft Excel. Chloroquine was used as control. […]

`O=C1C=C(Cc2ccccc2)C(=O)c2ccccc21` [Compound 5c, 2-Benzyl-1,4-dihydronaphthalene-1,4-dione] was tested, and the “ligand efficiency lipophilic price (LELP), T. brucei rhodesiense” value [1] was 6.4819, the “lipophilic ligand efficiency (LLE), T. brucei rhodesiense” value [1] was 3.7754 and the “ligand efficiency lipophilic price (LELP), P. falciparum” value [2] was 7.6191. The “lipophilic ligand efficiency (LLE), P. falciparum” value [2] was 2.7161.
